From PubChem BioAssay AID624414 (National Center for Advancing Translational Sciences (NCATS), 2012)
This is a selection; strong and weak results do not stand in their true shares. The source made the active and inactive calls. No stated cut-off is given here; in the data, active means activation above about 50%; inconclusive means mostly about 30% to 49%; inactive means weaker than that.

The chains behind the UniProt entries cited, without tags or fusion partners.
UniProt Q9GZU1, whole entry: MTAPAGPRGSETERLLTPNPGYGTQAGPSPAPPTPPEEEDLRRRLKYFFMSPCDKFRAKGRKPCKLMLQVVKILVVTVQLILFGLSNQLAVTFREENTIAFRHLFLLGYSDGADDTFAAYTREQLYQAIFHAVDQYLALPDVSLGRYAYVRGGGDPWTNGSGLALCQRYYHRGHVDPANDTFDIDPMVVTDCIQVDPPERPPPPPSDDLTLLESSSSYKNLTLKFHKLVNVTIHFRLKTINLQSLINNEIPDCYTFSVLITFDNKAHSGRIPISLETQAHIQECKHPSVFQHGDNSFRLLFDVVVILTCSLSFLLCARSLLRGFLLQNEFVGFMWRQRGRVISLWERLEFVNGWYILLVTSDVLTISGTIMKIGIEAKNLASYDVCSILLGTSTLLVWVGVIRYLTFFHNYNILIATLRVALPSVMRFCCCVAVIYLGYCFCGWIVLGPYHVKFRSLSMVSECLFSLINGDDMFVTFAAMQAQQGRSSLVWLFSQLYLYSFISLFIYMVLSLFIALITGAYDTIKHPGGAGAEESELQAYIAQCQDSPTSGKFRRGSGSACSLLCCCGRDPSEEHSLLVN

target: Mucolipin-1 (Homo sapiens) (UniProt Q9GZU1); experiment: qHTS for Agonists of the Human Mucolipin Transient Receptor Potential 1 (TRPML1); details: TRPML1-expressing cells, Ca2+ dye fluorescence, FDSS; stronger effect = higher value; further: 0% is about no effect
From the text: Mutations of human Mucolipin transient receptor potential 1 (TRPML1) cause type IV mucolipidosis (ML4), a devastating neurodegenerative disease in young children. […] Currently, there is no treatment for ML4. […] Under physiological conditions, TRPMLs regulate membrane trafficking by transducing information about PI(3,5)P2 levels into changes in juxtaorganellar Ca2+, thereby triggering membrane fusion/fission events in the late endocytic pathways (endolysosomal trafficking). In addition, TRPML1 mediates release of Fe2+ from late endosomes and lysosomes, which is essential for cellular iron metabolism. Thus, impaired ion (Ca2+ and Fe2+) homeostasis underlies lysosomal dysfunction and ML4 phenotypes. In ML4 cells, the problem is twofold. First, defective Ca2+-dependent membrane trafficking due to TRPML1-deficiency causes accumulation of lipids and other bio-materials in the lysosome. […]
TRPML1-DL cells are dissociated from flasks, counted and, brought up to a density of 500,000 cells per mL of media containing a 1X Tet inducer. […] The assay plate is read on the FDSS using the following protocol: 10 second baseline read, 23nL of compounds and controls are added using 1536 pintool, agonist read for 110 seconds, 1 uL EC80 addition (4uM final 54-4 diluted in media), antagonist read for 110 seconds.

Structure (SMILES) | activation
CCC(=O)N(c1ccccc1)C1(COC)CCN(CCc2cccs2)CC1 | inactive: -0.284%
CCC(=O)N(c1ccccc1)C1(COC)CCN(CCn2nnn(CC)c2=O)CC1 | inactive: -0.536%
